Assay results: patent US7919329B2, “Method for screening for agents that affect food intake” (Oregon Health & Science University, priority 2001, dated 2011)

Chains of the proteins cited; added tags and fusions are not shown.
UniProt P42866, whole entry: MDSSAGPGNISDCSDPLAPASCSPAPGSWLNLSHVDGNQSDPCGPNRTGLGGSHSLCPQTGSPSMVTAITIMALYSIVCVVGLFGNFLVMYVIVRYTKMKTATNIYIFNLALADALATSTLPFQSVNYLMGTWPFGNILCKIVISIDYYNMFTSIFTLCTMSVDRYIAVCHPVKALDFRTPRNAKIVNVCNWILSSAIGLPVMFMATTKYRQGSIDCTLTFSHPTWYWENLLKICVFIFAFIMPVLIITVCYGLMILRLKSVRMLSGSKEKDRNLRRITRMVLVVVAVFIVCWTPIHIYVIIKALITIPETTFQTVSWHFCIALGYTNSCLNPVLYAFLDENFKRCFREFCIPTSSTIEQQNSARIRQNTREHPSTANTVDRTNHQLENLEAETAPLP

Molecular target: μ opioid receptor (MOP-R) (Mus musculus, UniProt P42866)
Type: cell-based

Substance: CTAP
- current induced by Met-Enk in POMC cells: completely prevented the current induced by Met-Enk
